From patent US20060241082A1, “Modulating vesicular monoamine transporter trafficking and function: a novel approach for the treatment of parkinson's disease” (priority 2002, published 2006)

By UniProt entry, the sequences of proteins in these tests, tags left out.
UniProt Q01827, whole entry: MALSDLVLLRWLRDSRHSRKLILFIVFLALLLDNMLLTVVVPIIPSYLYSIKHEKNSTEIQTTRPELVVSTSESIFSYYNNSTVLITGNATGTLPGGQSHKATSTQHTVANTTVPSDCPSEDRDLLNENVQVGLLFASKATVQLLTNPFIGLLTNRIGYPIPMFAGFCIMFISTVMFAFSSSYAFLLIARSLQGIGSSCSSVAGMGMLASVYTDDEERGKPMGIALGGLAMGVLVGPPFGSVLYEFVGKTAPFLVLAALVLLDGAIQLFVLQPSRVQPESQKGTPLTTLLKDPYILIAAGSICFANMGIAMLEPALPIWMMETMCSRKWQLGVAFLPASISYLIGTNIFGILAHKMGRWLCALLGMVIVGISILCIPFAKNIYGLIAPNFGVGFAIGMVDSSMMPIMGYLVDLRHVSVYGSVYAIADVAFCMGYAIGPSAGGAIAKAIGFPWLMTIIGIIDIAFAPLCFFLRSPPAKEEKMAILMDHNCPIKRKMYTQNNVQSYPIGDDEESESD

How the values were obtained:
VMAT-2 [1] = target: T1, VMAT-2 (Rattus norvegicus, UniProt Q01827); parameters: purified striatal vesicles prepared from treated rats; from tissue; host or cells: striatum of male Sprague-Dawley rats (synaptic vesicles; P2, P3, S3 fractions); conditions: in vivo
Description: Osmolarity was restored by addition of N-(2-hydroxyethyl)-piperazine-N′-2-ethanesulfonic acid (HEPES) and potassium tartrate 25 mM and 100 mM (final concentrations; pH 7.5 at 4° C.), respectively.

VMAT-2 [2] = target: T1, VMAT-2; parameters: purified striatal vesicles prepared from treated rats; from tissue; host or cells: striatum of male Sprague-Dawley rats (synaptic vesicles; P2, P3, S3 fractions); conditions: rats; Brown et al., 2001a,b; cited from earlier work

CCCN1CCC[C@@H]2Cc3n[nH]cc3C[C@H]21 [quinpirole]
vesicular [3H]DA uptake when rats were concurrently treated with METH (VMAT-2 [1]): neither treatment increased | vesicular [3H]DA uptake after administration alone (VMAT-2 [2]): increases
